The test concerns the target SK 5912 sorghum peroxidase (cationic class III peroxidase) (Sorghum bicolor, UniProt P84516). As to the kind of experiment: equilibrium binding titration by UV-visible spectroscopy.

By UniProt entry, the sequences of proteins in these tests, tags left out. Residues count along the entry.
UniProt P84516, 32-362 limits assumed: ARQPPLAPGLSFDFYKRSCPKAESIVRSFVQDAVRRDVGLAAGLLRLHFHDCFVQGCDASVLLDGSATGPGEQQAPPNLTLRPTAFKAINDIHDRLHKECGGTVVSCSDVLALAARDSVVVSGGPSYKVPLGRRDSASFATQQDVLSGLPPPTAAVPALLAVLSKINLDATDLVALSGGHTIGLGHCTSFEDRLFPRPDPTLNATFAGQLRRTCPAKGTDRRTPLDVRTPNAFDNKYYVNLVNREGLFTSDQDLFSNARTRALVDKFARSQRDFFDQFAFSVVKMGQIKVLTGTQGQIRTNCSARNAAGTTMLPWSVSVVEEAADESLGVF

Molecules are shown by their SMILES.

The term Kd denotes the equilibrium constant for the complex coming apart. The low end stands for a tighter complex, the high end for a looser complex.

In turn, `[N-]=[N+]=N` had a Kd of 19 µM.

The values are drawn from publication PMC4771821, “Structural and spectroscopic characterisation of a heme peroxidase from sorghum” (Journal of Biological Inorganic Chemistry, 2015).
